The data set concerns NCCC[C@@H](N)C(=O)O. Put plainly: purified protein. The conditions noted are these: 100 nM holo-OAM with PLP and AdoCbl, 100 nM DAPDH, 0.5 mM NAD+, 25 °C, anaerobic.

As to “ornithine 4,5-aminomutase (OAM) (Acetoanaerobium sticklandii DSM 519; E335D)”, the Michaelis constant (Km) came out at 135.2 ± 8.2 µM, the kcat turned out to be 0.34 s⁻¹ and the kcat/Km amounted to 2500 M⁻¹ s⁻¹.

As for “ornithine 4,5-aminomutase (OAM) (Acetoanaerobium sticklandii DSM 519; E335Q)”, the Km came to 148.3 ± 11.6 µM, the turnover number (kcat) was 0.56 s⁻¹ and the kcat/Km was found to be 3800 M⁻¹ s⁻¹.

The term Km denotes the concentration of substrate that gives half-maximal velocity. A word on the kcat: it is the number of substrate molecules converted per active site and unit of time at saturation. For orientation: kcat/Km means the turnover number divided by the Michaelis constant.

These data come from paper PMC4413051, “Glutamate 338 is an electrostatic facilitator of C–Co bond breakage in a dynamic/electrostatic model of catalysis by ornithine aminomutase” (The Febs Journal, 2015).
